From PubChem BioAssay
In the library only some 1.7% were active in any assay of this set; here they are far more common.
DYRK1A inh = inhibitors of rat Dyrk1A kinase. ADP-Glo luminescence, NFATc1 peptide. inhibition, % at 12.5 µM. Q63470. AID 504441. actives 0.43% (n = 310,000); in the data active = inhibition above about 50%;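 note: plate controls were vehicle with enzyme for no effect and no enzyme for full effect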
Yeast UUG start = modulators of start codon recognition fidelity in yeast. S. cerevisiae UUG-firefly luciferase reporter, luminescence/redox ratio. activity score, % at 18.7 µM. 0.13% of 350,000 active. AID 602363;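 active = replicate mean at a twofold rise or more, about +100% in these data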;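 also: firefly luciferase made from a UUG start codon reports start codon fidelity; reporter light over untreated wells divided by growth signal over untreated wells; some hits fall short of that in this replicate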
CAL PDZ FP-1 = inhibitors of human CAL PDZ peptide binding; AID 504414; purified CAL PDZ, TMR-peptide fluorescence polarization, 1 h; inhibition, % at 20 µM; Q9HD26; actives 0.02% (n = 330,000);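 active = highest replicate inhibition of at least 40%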;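 note: plate controls were DMSO neutral control wells for no effect and unlabeled competitor peptide control wells for full effect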
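Material: tagged CAL PDZ protein CerCALP, purified; buffer or medium: sodium phosphate/NaCl buffer pH 7.4 with TCEP, IgG, Thesit; also added: fluorescent TMR peptide probe; schedule: 1 h incubation at room temperature before polarization reading; technique: fluorescence polarization from S- and P-plane intensities, G-factor corrected; control set: unlabelled peptide and DMSO controls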
CAL PDZ FP-2 = blocks peptide binding to the human CAL PDZ domain; Q9HD26; purified CAL PDZ, TMR-peptide fluorescence polarization, 1 h; inhibition, % at 24.9 µM; actives 0.92% (n = 300,000);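 active = mean inhibition of at least 30% with at least half of replicates also reaching 30%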;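 note: 0% = DMSO neutral control and 100% = excess unlabeled competitor peptide PRC23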
CDK5 p35 inh = blocks human CDK5/p35 kinase activity; actives 0.01% (n = 330,000); inhibition, % at 10 µM; Recombinant CDK5/p35, ADP-Glo luminescence, 60 min; Q00535+Q15078; AID 488839;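 active = highest replicate inhibition of at least 50% and at least 75% of replicates reaching 50%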;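 note: plate controls were DMSO neutral control for no effect and GW8510 at 10 µM for full effect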
dFosB act = mouse delta FosB homodimer activation; P13346; purified delta FosB, TAMRA-CDK5 oligo fluorescence polarization; percent of positive-control signal above neutral wells; activation, % at 25 µM; actives 0.99% (n = 340,000); AID 493131;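 active = mean activation above about 17%, with every replicate also reaching it, limit read from the data, passing the limit was not always enough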
* hit, by the source's call; / = not tested or not shown; + = active, no number.

A first look, 5 compounds:
SMILES	DYRK1A inh	Yeast UUG start	CAL PDZ FP-1	CAL PDZ FP-2	CDK5 p35 inh	dFosB act
CC1CCN(C(=O)CSc2nnc(-c3cccnc3)n2C2CCCCC2)CC1	3.4	/	0.4	2.0	-0.9	-5.1
O=C(CSc1nnc(-c2ccccc2F)n1C1CCCCC1)N1CCCC1	0.2	-6.3	-1.7	5.6	-1.4	-1.7
O=C(c1cccc(F)c1)N1C[C@H]2[C@@H](c3ccccc31)[C@H](CO)N2C(=O)c1ccccn1	/	13.2	/	/	/	/
O=C(NCC[C@@H]1CC[C@@H](NS(=O)(=O)c2ccccc2F)[C@@H](CO)O1)c1ccc(F)cc1	/	10.2	/	/	/	/
COc1ccc(Nc2nccc(-c3cccc(N)c3)n2)cc1	24.6	-29.7	-1.1	-5.1	15.6	-0.8

The listing, repeating the preview:
SMILES	DYRK1A inh	Yeast UUG start	CAL PDZ FP-1	CAL PDZ FP-2	CDK5 p35 inh	dFosB act
CC1CCN(C(=O)CSc2nnc(-c3cccnc3)n2C2CCCCC2)CC1	3.4	/	0.4	2.0	-0.9	-5.1
O=C(CSc1nnc(-c2ccccc2F)n1C1CCCCC1)N1CCCC1	0.2	-6.3	-1.7	5.6	-1.4	-1.7
O=C(c1cccc(F)c1)N1C[C@H]2[C@@H](c3ccccc31)[C@H](CO)N2C(=O)c1ccccn1	/	13.2	/	/	/	/
O=C(NCC[C@@H]1CC[C@@H](NS(=O)(=O)c2ccccc2F)[C@@H](CO)O1)c1ccc(F)cc1	/	10.2	/	/	/	/
COc1ccc(Nc2nccc(-c3cccc(N)c3)n2)cc1	24.6	-29.7	-1.1	-5.1	15.6	-0.8
COc1ccc(Nc2nccc(-c3ccc(C#N)cc3)n2)cc1	16.5	-11.1	-1.2	2.4	54.6*	-3.4
C[C@H](CO)N1C[C@H](C)[C@@H](CN(C)C(=O)NC2CCCCC2)OCCCC[C@H](C)Oc2ccc(NC(=O)Nc3cccc4ccccc34)cc2C1=O	/	-6.6	/	/	/	/
CN(C)c1ccc(N=Nc2ccc(S(N)(=O)=O)cc2)cc1	1.1	0.9	-0.7	44.5*	0.7	14.3
CN(C)N=Nc1ccc(S(N)(=O)=O)cc1	-2.4	-30.0	0.4	1.0	-1.2	-3.3
CSc1nc(-c2ccc(C)cc2)[nH]c1S(=O)(=O)c1ccccc1	/	-4.1	/	35.3*	0.4	-0.6
CSc1nc(-c2ccccc2)[nH]c(=S)c1C(C)=O	-1.8	-18.6	-1.0	-0.5	3.5	1.7
C[C@@H]1CCCCO[C@@H](CN(C)C(=O)Nc2cccc3ccccc23)[C@@H](C)CN([C@H](C)CO)C(=O)c2cc(NS(=O)(=O)c3cccs3)ccc2O1	/	-8.6	/	/	/	/
Cc1c(NC2=NC(C)(C)Cc3ccccc32)c(=O)n(-c2ccccc2)n1C	-0.3	-14.5	-0.2	-2.7	0.5	5.8
Cc1c(NC2(C#N)CCCC2)c(=O)n(-c2ccccc2)n1C	0.7	/	-0.7	78.3*	-0.4	-2.7
Cc1c(NC2=CC(=O)CC(C)(C)C2)c(=O)n(-c2ccccc2)n1C	-5.6	1.2	-0.7	31.4*	0.0	-4.9
C[C@H](CO)N1C[C@H](C)[C@@H](CN(C)S(=O)(=O)c2ccccc2)Oc2cc(Br)ccc2S1(=O)=O	/	12.3	/	/	/	/
C[C@@H]1CCCCO[C@@H](CN(C)C(=O)Nc2ccc3c(c2)OCO3)[C@H](C)CN([C@@H](C)CO)C(=O)c2cc(NC(=O)CCCN(C)C)ccc2O1	/	18.7	/	/	/	/
COc1ccc(NC2CCCN(C(=O)c3csc(C(C)C)n3)C2)cc1 (configuration not stated)	-0.2	-13.0	0.7	92.7*	-0.4	-4.1
CC(C)c1ccc(NC2CCCN(C(=O)c3ccnn3C)C2)cc1 (configuration not stated)	-2.3	-7.1	-0.5	55.3*	-1.6	-4.6
Cc1cc(C(=O)N2CCCC(Nc3ccc(C(C)C)cc3)C2)nn1C (configuration not stated)	4.3	-13.3	-1.5	-5.3	-0.6	-5.6
COc1ccc(NC2CCCN(C(=O)CCc3ccccc3F)C2)cc1 (configuration not stated)	-2.5	-7.4	0.3	78.0*	0.8	-10.2
COc1ccc(NC2CCCN(C(=O)CCOc3ccccc3)C2)cc1 (configuration not stated)	-1.3	-4.2	-0.8	-4.6	-1.5	-3.3
COc1cccc(C(=O)Nc2ccc3c(c2)OC[C@@H](C)N(CC2CC2)C[C@H](C)[C@H](OC)CN(C)C3=O)c1	/	-5.5	/	/	/	/
CCC(=O)Nc1ccc2c(c1)C(=O)N(C)[C@@H]1CC[C@@H](CC(=O)NCCc3ccccc3)O[C@@H]1CO2	/	-11.6	/	/	/	/
C[C@H](CO)N1C[C@H](C)[C@H](CN(C)Cc2ccc(-c3ccccc3)cc2)Oc2c(NC(=O)C3CCCCC3)cccc2C1=O	/	8.3	/	/	/	/

Additional structures
SMILES	DYRK1A inh	Yeast UUG start	CAL PDZ FP-1	CAL PDZ FP-2	CDK5 p35 inh	dFosB act
Cc1ccc(NC(=O)CSc2nnc(-c3ccc(S(=O)(=O)N4CCCC4)cc3)o2)cc1C	-22.1	/	-0.4	-2.7	-1.1	70.0*
COc1cc2[nH]c(=S)n(Cc3ccc(C)cc3)c(=O)c2cc1OC	3.0	/	8.2	39.8*	-0.5	-4.0
CCOC(=O)/C(C#N)=C/c1ccc(OCC(=O)Nc2ccc(OC)cc2)c(OC)c1	-1.1	-5.2	-1.2	74.6*	-0.9	6.3
CCOc1ccc(C(=O)/C=C/c2ccc(OC)c(OC)c2)cc1	/	/	-1.5	60.5*	-0.4	-7.5
CC(C)C1Cc2c(sc3c2c(=O)n(-c2ccccc2)c2n[nH]c(=S)n32)CO1 (configuration not stated)	/	/	-0.6	+	3.7	4.0
O=C(CSc1nc2ncccc2[nH]1)NCc1ccco1	6.7	-17.0	-0.8	58.6*	1.1	2.1
O=C(CSc1nc2ccccc2[nH]1)NCc1ccco1	3.0	-12.1	-2.7	-1.2	-1.9	4.5
CN(C)/C=C1\C=C2C(=O)c3ccccc3N2C1=O	/	/	1.2	55.6*	0.7	3.0
CN(C)S(=O)(=O)N1C(=O)c2ccccc2C1=O	0.9	2.9	/	-3.9	0.5	-1.0
CCc1noc(C)c1C(=O)Nc1ncc(C)s1	-4.3	-9.1	-2.6	35.0*	-0.8	-12.5
CCC(=O)N1CCc2cc(OC)c(OC)cc2C1COc1ccc(C(=O)OC)cc1 (configuration not stated)	-11.1	7.2	-1.2	4.0	0.9	-4.8
COC(=O)c1ccc(OCC(O)CN2CCc3cc(OC)c(OC)cc3C2c2ccccc2)cc1 (configuration not stated)	1.6	-2.2	-0.4	75.8*	1.0	-18.6
CCOC(=O)C1(CCOc2ccccc2)CCN(Cc2ccc(COC)o2)CC1	-2.1	-17.3	-2.3	-0.9	0.1	0.8
CCOC(=O)C1(CCOc2ccccc2)CCN(Cc2cnc(SC)nc2)CC1	-4.3	-1.5	-1.0	45.8*	-2.8	-9.9
CCOC(=O)C1(CCOc2ccccc2)CCN(Cc2ccc(C)o2)CC1	-0.3	/	-0.7	53.2*	-2.4	-7.7
CCOC(=O)C1(CCOc2ccccc2)CCN(Cc2ccc(O)cc2)CC1	/	-20.7	-1.3	-4.2	-6.1	-3.3
O=C1CSC(c2ccc([N+](=O)[O-])cc2)N1CCN1CCCCC1 (configuration not stated)	3.2	/	-1.0	44.0*	0.3	-0.4
COc1cc(OC)cc(C(=O)N2CCN(c3ccccn3)CC2)c1	-1.6	-10.2	/	-4.5	2.0	0.8
COc1cc(C(=O)N2CCN(c3ccccn3)CC2)cc(OC)c1OC	27.4	-15.7	2.3	2.2	89.0*	5.7
Cc1c(C)n(Cc2ccc(F)cc2)c2ccc(C(=O)N3CCN(c4ccccn4)CC3)cc12	12.2	2.5	-2.0	/	0.9	27.0*
CCCN(CC(=O)Nc1ccccc1C)C(=O)COc1c(Cl)cccc1Cl	1.9	-7.9	-1.6	-1.8	0.3	-13.1
